Source: patent publication US20100210668A1, “COMPOSITION AND METHOD FOR TREATMENT OR PREVENTION OF BENIGN PROSTATIC HYPERPLASIA AND LOWER URINARY TRACT SYMPTOMS” (DONG-A PHARM. CO., LTD., priority 2007, published 2010)

Legend:
health men [1] = experiment: Safety Test 1: vital signs in supine position, Tamsulosin combination; type: in vivo, human
Text: 28 health men aged 19 to 50 years were divided into four groups according to randomization list, and administered by a) placebo and placebo (Group A), b) placebo and the pyrazolopyrimidinone of chemical formula (I) (Group B), c) Tamsulosin and placebo (Group C) and d) Tamsulosin and the pyrazolopyrimidinone of chemical formula (I) (Group D) to evaluate the effect of the combinational administration of the pyrazolopyrimidinone of chemical formula (I) and Tamsulosin on the safety.
(§1) The safety evaluation was performed by observing vital signs (diastolic blood pressure, pulse rate, body temperature), clinical laboratory testing, electrocardiogram, adverse reactions such as subjective symptom and objective symptom. In addition, the effect of drug interaction on pharmacokinetics of the pyrazolopyrimidinone was observed.

health men [2] = experiment: Safety Test 2: vital signs in supine position, Silodosin combination; type: in vivo, human; settings: the values are: Systolic blood pressure mean
Protocol: 9 health men aged 19 to 50 years were divided into three groups according to randomization list, and administered by a) placebo and the pyrazolopyrimidinone of chemical formula (I) (Group A), b) placebo and Silodosin (Group B), and c) Silodosin and the pyrazolopyrimidinone of formula (I) (Group C) to evaluate the effect of the combinational administration of the pyrazolopyrimidinone of formula (I) and Silodosin on the safety.
as §1, with “drug-drug” for “drug”

| Structure (SMILES) | Diastolic blood pressure mean (health men [1]) | Diastolic blood pressure mean (health men [2]) [mmHg] |
| --- | --- | --- |
| CCCOc1ccc(S(=O)(=O)NCCC2CCCN2C)cc1-c1nc2c(CCC)nn(C)c2c(=O)[nH]1 (stereo not drawn) [Compound of formula (I), 5-[2-propyloxy-5-(1-methyl-2-pyrolidinylethylamidosulphonyl)phenyl]-1-methyl-propyl-1,6-dihydro-7H-pyrazolo (4,3-d)pyrimidin-7-one] | 112.4 | 113 |
| CCOc1ccccc1OCCN[C@H](C)Cc1ccc(OC)c(S(N)(=O)=O)c1 [Tamsulosin, (R)-5-(2-(2-(2-ethoxyphenoxy)ethylamino)propyl)-2-methoxy benzensulfonamide, reference compound] | 112.3 | – |
